Measured values reported in patent publication US10981908B2, “Aryl hydrocarbon receptor (AHR) modulator compounds” (PHENEX PHARMACEUTICALS AG, priority 2017, dated 2021).

Protein sequences, listed by entry. Tags and fused reporters are not part of them. Residues count along the entry.
UniProt P35869, 11-848 limits assumed: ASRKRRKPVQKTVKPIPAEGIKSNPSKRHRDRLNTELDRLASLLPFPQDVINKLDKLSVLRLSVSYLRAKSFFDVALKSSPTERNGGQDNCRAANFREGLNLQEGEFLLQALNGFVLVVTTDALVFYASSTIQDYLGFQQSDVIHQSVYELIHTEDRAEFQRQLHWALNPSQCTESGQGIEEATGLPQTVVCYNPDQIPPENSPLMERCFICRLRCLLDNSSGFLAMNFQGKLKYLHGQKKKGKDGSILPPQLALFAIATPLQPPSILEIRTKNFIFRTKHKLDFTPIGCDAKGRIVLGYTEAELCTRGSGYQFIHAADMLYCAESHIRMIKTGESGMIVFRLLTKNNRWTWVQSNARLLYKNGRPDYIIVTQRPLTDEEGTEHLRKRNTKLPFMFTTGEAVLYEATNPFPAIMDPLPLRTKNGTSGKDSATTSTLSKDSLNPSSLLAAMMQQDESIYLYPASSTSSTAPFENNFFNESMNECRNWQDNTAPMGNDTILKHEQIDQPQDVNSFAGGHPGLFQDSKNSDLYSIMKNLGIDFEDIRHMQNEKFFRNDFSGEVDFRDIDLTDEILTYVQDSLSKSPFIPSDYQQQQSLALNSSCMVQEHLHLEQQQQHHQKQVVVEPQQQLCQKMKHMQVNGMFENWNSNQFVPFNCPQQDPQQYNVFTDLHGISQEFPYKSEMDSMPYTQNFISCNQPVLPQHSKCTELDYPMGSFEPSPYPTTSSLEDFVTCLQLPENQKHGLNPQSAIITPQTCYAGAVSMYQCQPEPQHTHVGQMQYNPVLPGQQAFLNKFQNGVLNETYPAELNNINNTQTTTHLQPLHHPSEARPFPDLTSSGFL

Molecular target: AhR (Homo sapiens, UniProt P35869)
Text: AhR Direct Luciferase Reporter Assay in HepG2 Cells
A stable cell line (HepG2 CYP1A1-LUC) was used in which part of the promoter region of the human CYP1A1 gene is stably integrated into the genome of human HepG2 hepatocytes (DSZM #ACC 180) in front of a Photinus pyralis Firefly Luciferase gene. A 1210 bp fragment comprising part of the human CYP1A1 promoter was isolated via SacI and BgIII restriction digestion from Lightswitch Clone S714555 (SwitchGearGenomics) and inserted between the SacI and BgIII sites in pGL4.30 (Promega #E8481) in front of the Firefly Luciferase gene. […]
In typical reporter assays performed with this cell line, cells are grown in 96-well plates and AhR modulators are titrated into the growth medium in serial dilutions in RPMI-1640 Medium (Sigma #R7509) supplemented with 8,6% fetal calf serum (Sigma #F7524) and containing either no exogenous AhR agonist or 10 nM of the potent AhR agonist VAF347 (Calbiochem #182690). Cells are further cultivated for 18 hours and luciferase activities are determined from extracts of cells in buffers containing D-Luciferine and ATvP using a LUMIstar Optima microplate Luminometer from BMG Labtech.

Cn1ncnc1C(=O)Nc1ccc2cc(-c3cccc(C(F)F)c3)[nH]c2n1
IC50: < 100 nM
